This test has as its target human CB1 receptor (Homo sapiens, UniProt P21554). In words: cell-based. To be noted: for Emax: CHO, read-out: efficacy (maximal response).

Chains of the proteins cited; added tags and fusions are not shown.
UniProt P21554, whole entry: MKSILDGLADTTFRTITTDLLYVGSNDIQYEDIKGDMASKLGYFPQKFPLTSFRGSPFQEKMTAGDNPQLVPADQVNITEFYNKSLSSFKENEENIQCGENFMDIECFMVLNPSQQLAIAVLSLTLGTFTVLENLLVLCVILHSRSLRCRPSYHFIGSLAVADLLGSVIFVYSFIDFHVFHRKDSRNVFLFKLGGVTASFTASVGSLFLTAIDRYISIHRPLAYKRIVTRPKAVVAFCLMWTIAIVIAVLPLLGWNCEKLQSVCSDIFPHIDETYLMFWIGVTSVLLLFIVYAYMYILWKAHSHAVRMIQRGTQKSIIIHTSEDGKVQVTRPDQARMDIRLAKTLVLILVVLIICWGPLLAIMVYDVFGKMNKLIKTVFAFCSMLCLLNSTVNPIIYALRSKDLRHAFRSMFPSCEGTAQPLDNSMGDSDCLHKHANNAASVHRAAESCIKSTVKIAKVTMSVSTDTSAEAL

On to `CCOC(=O)c1c(C)cc2nc(COC(=O)NCCO)n(-c3ccccc3S(=O)(=O)NC)c(=O)c2c1C` [Compound 1a, 2-(2-Hydroxy-ethylcarbamoyloxymethyl)-5,7-dimethyl-3-(2-methylsulfamoylphenyl)-4-oxo-3,4-dihydro-quinazoline-6-carboxylic acid ethyl ester], for which it took 94 nM to reach a half-maximal effect (EC50) and the Emax stood at 67%.

`Cl.O=C(NCCO)[C@H]1CCCN(Cc2nc(-c3cn(CC4CCS(=O)(=O)CC4)c4c(Cl)cccc34)ns2)C1` [Compound 2, (S)-7-Chloro-3-[(5-{[3-N-(2-hydroxyethyl)carboxamido]piperidin-1-yl}methyl)([1,2,4]-thiadiazol-3-yl)]-1-(1,1-dioxo-hexahydrothiopyran-4-yl)methyl-1H-indole, hydrochloride salt]: the EC50 was 23 nM and the Emax was determined as 42%.

Broadly, the EC50 is the concentration at which the effect is half-maximal.
